{"source": "patent US20120046251A1", "about": "“INHIBITORS OF SOLUBLE EPOXIDE HYDROLASE TO INHIBIT OR PREVENT NIACIN-INDUCED FLUSHING” (The Regents of the University of California, priority 2009, published 2012)", "tested_on": "C57BL/6 mice", "experiment": "Niacin-induced flushing: laser Doppler ear blood flow in anesthetized mice", "format": "in vivo, mouse", "settings": "i.p. 30 minutes before niacin 30 mg/kg; TPAU 0.01-1 mg/kg, others 4 mg/kg", "data": [{"smiles": "O=C(NC12CC3CC(CC(C3)C1)C2)N[C@H]1CC[C@H](Oc2ccc(C(=O)O)cc2)CC1", "note": "(relative stereo) [t-AUCB, trans-4-[4-(3-adamantan-1-ylureido)cyclohexyloxy]benzoic acid]", "values": [{"measurement": "peak ear tissue perfusion after niacin (composite, FIG. 9)", "result": "significantly reduced peak ear tissue perfusion"}]}]}
